This passage reports activity change results from PubChem BioAssay AID720551 (National Center for Advancing Translational Sciences (NCATS), 2013).

By UniProt entry, the sequences of proteins in these tests, tags left out. Where a name states a change or a piece, a line headed by the entry shows the natural chain unless it says otherwise.
UniProt Q12809: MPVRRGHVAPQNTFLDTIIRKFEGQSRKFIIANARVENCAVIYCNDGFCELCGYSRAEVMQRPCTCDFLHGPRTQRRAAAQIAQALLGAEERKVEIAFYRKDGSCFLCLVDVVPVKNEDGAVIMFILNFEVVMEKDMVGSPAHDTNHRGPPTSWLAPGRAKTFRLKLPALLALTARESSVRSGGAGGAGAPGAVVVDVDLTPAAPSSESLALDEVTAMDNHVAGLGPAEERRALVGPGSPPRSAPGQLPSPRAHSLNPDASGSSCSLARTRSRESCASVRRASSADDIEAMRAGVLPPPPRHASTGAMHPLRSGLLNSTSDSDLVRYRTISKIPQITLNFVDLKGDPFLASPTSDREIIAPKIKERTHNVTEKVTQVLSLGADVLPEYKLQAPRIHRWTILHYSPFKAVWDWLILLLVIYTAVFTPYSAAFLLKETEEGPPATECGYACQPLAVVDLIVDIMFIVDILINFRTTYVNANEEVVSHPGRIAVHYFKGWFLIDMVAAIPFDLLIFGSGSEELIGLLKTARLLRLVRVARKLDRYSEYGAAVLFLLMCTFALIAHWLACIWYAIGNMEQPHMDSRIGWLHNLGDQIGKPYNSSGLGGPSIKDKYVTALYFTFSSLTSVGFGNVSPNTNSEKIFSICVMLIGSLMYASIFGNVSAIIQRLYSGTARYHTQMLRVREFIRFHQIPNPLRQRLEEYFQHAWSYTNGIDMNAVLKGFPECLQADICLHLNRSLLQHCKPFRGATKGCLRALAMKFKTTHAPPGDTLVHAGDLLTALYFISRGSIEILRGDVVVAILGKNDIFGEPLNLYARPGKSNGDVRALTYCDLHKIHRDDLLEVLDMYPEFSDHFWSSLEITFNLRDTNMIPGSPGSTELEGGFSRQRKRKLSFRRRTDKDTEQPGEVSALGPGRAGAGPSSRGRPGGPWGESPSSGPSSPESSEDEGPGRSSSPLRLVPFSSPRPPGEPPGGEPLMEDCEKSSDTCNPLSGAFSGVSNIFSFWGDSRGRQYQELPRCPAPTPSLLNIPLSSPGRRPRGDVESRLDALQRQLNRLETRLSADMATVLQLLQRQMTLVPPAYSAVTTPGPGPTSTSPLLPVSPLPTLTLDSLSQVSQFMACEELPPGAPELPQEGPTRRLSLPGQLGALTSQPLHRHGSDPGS

The list shows a part of the results, in another mix than the full data. The source made the active and inactive calls.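 Rule for the calls: active = maximum activity change below -70%; inconclusive = maximum activity change between -70% and -50%; inactive = maximum activity change above -50%.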
% is set by controls: 0 for no effect and ±100 for the full control effect.

This experiment addresses Voltage-gated inwardly rectifying potassium channel KCNH2 (Homo sapiens) (UniProt Q12809). Put plainly: qHTS for Inhibitors of KCHN2 3.1: Wildtype qHTS. The following applies: U2OS, BacMam KCNH2, thallium flux FluxOr; at 1.84 µM, hits give low values. An excerpt:
Many antipsychotic drugs that inhibit the neurotransmitter dopamine also bind to hERG1 channel which might help explain their antipsychotic activity but also produces cardiac side effects. The discovery of the novel KCNH2 3.1 isoform offers a potential new target for the development of antipsychotic drugs without cardiac side effects. This proposal will use a high throughput thallium flux assay developed for KCNH2 to screen compounds that modulate the activity of KCNH2 3.1. The wild type KCNH2 channel will also be screened in parallel to help define the selective modulators of this KCNH2 3.1 potassium channel. The resulting compounds will be validated in electrophysiology experiments. The availability of animal models will allow future testing in vivo for effects on memory and other aspects of animal physiology linked with psychosis. NIH Chemical Genomics Center [NCGC] NIH Molecular Libraries Probe Centers Network [MLPCN] MLPCN Grant: MH096539 Assay Submitter (PI): James Barrow, Johns Hopkins University, Lieber Institute for Brain Development
U2OS cells were resuspended in cell media containing 10% fetal calf serum (FCS) at a concentration of 2 million cells / mL. The solution was treated with the Wild-type virus at 2.03 x 10^8 / mL and allowed to incubate at room temperature in the dark. After 4 hours of incubation, DMEM + 10% fetal bovine serum (FBS) was added to the cell solution. Three microliter was then dispensed into a 1536 tissue culture treated black assay plates which were incubated overnight at 37 C. Two microliter of loading buffer (HBSS + HEPES + Red40 dye quencher + FluxOr dye) was added and the assay plates were incubated for 45 min at room temperature in the dark. […] A stimulation buffer was added to the plate and the second kinetic read (2 min) was obtained. The rate constant was calculated from the kinetic reads and normalized to the positive and negative DMSO controls.
For the compound `COP1(=S)c2c(C)nn(CCC#N)c2N=C(c2ccc(F)cc2)N1C` (stereo unspecified), the activity change is inactive: -7.05%.

As to `O=C(COc1ccccc1)OC1CN2CCC1CC2` (stereo unspecified), the activity change is active: -219%. The result for `O=C(Nc1ccncc1[N+](=O)[O-])c1ccc([N+](=O)[O-])cc1[N+](=O)[O-]` reads inactive: -2.07%.

Consider `O=C(O)C(=O)c1ccc(N(CCCl)CCCl)cc1`, for which the activity change was active: -122%. The result for `CCOC(=O)c1ccc(NC(=O)C(C)(CCl)SC)cc1` (stereo unspecified) reads inactive: -8.65%; that for `O=C(OC1CN2CCC1CC2)c1cccc([N+](=O)[O-])c1` (stereo unspecified), inactive: 9.11%. Take `CSc1ccc(Nc2c([N+](=O)[O-])cc([N+](=O)[O-])cc2[N+](=O)[O-])cc1`: the activity change was inactive: 8.33%. Then `CCC(C)N(CC(C)C)C(=S)SC(NC(C)=O)C(Cl)(Cl)Cl` (stereo unspecified), with inactive: -3.85%; and `CC1CCNP(=O)(N(CCCl)CCCl)O1` (stereo unspecified), with inactive: 0.656%; and `O=C(O)C(O)c1ccc(N(CCCl)CCCl)cc1` (stereo unspecified), with inactive: -5.19%.

`CCCCOc1ccc(C(=O)NCC2(N3CCCCC3)CCCCC2)cc1OC`: the activity change was inactive: 1.06%. The result for `Cc1cc(SC(NC(=O)c2ccccc2)C(Cl)(Cl)Cl)nc(C(C)C)n1` (stereo unspecified) reads inactive: 5.71%; that for `COP(=O)(OC)N1CC1c1ccccc1` (stereo unspecified), inactive: 4.96%. The result for `CCOC(=O)Nc1cccc([As](=O)(O)O)c1` reads inactive: 28.4%; that for `O=P(Nc1ccccn1)(c1cccc2ccccc12)c1cccc2ccccc12`, inactive: 8.33%; that for `Cc1cc(SC(NC=O)C(Cl)(Cl)Cl)ncn1` (stereo unspecified), inactive: -9.62%. Regarding `O=[As](O)(c1ccc(O)cc1)c1ccccc1O`, the activity change was inactive: 1.22%. Then `C[As](=O)(O)c1cccc(C(=O)O)c1`, with inactive: 3.95%; and `COc1cc(C(=O)NCC2(N3CCOCC3)CCCCC2)ccc1OCC(C)C`, with inactive: 7.56%. Turning to `O=[N+]([O-])c1ccc(-c2cc([N+](=O)[O-])c(O)c([N+](=O)[O-])c2)cc1`, the activity change is inactive: -5.11%. The result for `Cc1ccc2nc3c(c(C)c2c1)CC(C(Cl)Cl)S3` (stereo unspecified) reads inactive: -0.626%. `Cc1ccc(OP(=O)(Nc2ccc([N+](=O)[O-])cn2)Oc2ccc(C)cc2)cc1`: the activity change was inactive: -12.7%. The result for `CC(C)c1ccc(OP(=O)(Nc2ccccn2)Oc2ccccc2F)cc1` (stereo unspecified) reads inactive: 15.6%; that for `COC(=O)C1(C)COP(=O)(N2CCCCCC2)OC1` (stereo unspecified), inactive: 30%. On to `ClCCSc1nnc(-c2cccnc2)o1`, for which the activity change was inactive: -16.7%.

In the case of `CCN(CC)C(=S)SC(NC=O)C(Cl)(Cl)Cl` (stereo unspecified), the activity change was inactive: 13.5%. Then `O=C(OC1CN2CCC1CC2)c1cccc2[nH]cnc12` (stereo unspecified), with inactive: 17.3%; and `CC(C)NC(=O)NP(=O)(Oc1ccccc1)Oc1ccccc1`, with inactive: -8.65%; and `O=[N+]([O-])c1cc([N+](=O)[O-])c(-c2ccn[nH]2)s1`, with inactive: -17%. Then `O=C(OC1CN2CCC1CC2)C12CC3CC(CC(C3)C1)C2` (stereo unspecified), with inactive: 73.4%; and `Cc1cc(=O)[nH]c(N[N+](=O)[O-])n1`, with inactive: -8.93%; and `COc1ccc2nc(NP(=O)(c3ccccc3)c3ccccc3)sc2c1`, with inactive: 5.27%.

On to `COc1cc(I)ccc1[As](=O)(O)O`, for which the activity change is inactive: -0.808%. Turning to `O=P1(N(CCCl)CCCl)Nc2ccccc2N1`, the activity change was inactive: -8.5%. In the case of `COc1ccc(N/C(=N/P(=O)(N2CCOCC2)N2CCOCC2)N2CCOCC2)cc1`, the activity change is inactive: -8.66%.

On to `O=[N+]([O-])c1cc(Oc2ccc([N+](=O)[O-])cc2C(F)(F)F)cc([N+](=O)[O-])c1`, for which the activity change was inactive: 14.6%.

Consider `COc1cc(C(=O)NCC2(N3CCOCC3)CCCCC2)cc(Cl)c1OC(C)C`, for which the activity change was inactive: 3.88%. Turning to `O=[As](O)(O)c1cccnc1`, the activity change was inactive: -2.64%. Then `CS(=O)(=O)c1ccc(Cl)c(NC(=O)COC(=O)C(O)(c2ccccc2)c2ccccc2)c1`, with inactive: -1.02%; and `O=C(OC1CN2CCC1CC2)c1ccc(Cl)cc1` (stereo unspecified), with inactive: 4.89%; and `O=[As](O)(c1cccc(O)c1)c1cccc(O)c1`, with inactive: -9.91%. The result for `Cc1cccc(OCC(=O)OC2CN3CCC2CC3)c1` (stereo unspecified) reads inactive: 9.45%; that for `CCCOP(=S)(Nc1nc(N)cc(=O)[nH]1)OCCC`, inactive: 2.51%; that for `Cc1ccc(NCCc2c([N+](=O)[O-])cc([N+](=O)[O-])cc2[N+](=O)[O-])cc1`, inactive: -4.03%.

In the case of `Nc1cccc2c([As](=O)(O)O)cccc12`, the activity change was inactive: 8.01%. Then `COc1cc(C2NCCC3(OCCO3)C2(C)C)cc(OC)c1OC` (stereo unspecified), with inactive: -6.66%; and `CCOP(=O)(Nc1cccc2ccccc12)OCC`, with “inactive”; and `CS(=O)(=O)c1cc([N+](=O)[O-])c2no[n+]([O-])c2c1`, with inactive: -13.1%. In the case of `CCOP1(=S)c2c(C)nn(CCC#N)c2N=C(c2ccccc2F)N1C` (stereo unspecified), the activity change is inactive: -1.52%. The result for `O=P(Nc1nccs1)(c1ccccc1)c1nc2ccccc2s1` (stereo unspecified) reads inactive: -6.92%; that for `Nc1ccccc1[As](=O)(O)c1ccccc1`, inactive: -1.61%; that for `O=C(O)COc1ccc([As](=O)(O)O)cc1[N+](=O)[O-]`, inactive: 7.67%. Then `NC(=O)Nc1ccc([As](=O)(O)O)cc1`, with inactive: 5.53%; and `CN(C)C(=O)c1cc([N+](=O)[O-])cc2c1-c1c(cc([N+](=O)[O-])cc1[N+](=O)[O-])C2=O`, with inactive: 0.947%; and `O=[N+]([O-])c1ccc2c(c1)nnn2O`, with inactive: 3.78%. `CN(C(=O)Cc1ccc(Cl)c(Cl)c1)[C@H]1CC[C@@]2(CCCO2)C[C@@H]1N1CCCC1`: the activity change is inactive: 53.7%. The result for `N#CCCN(C(=O)COC(=O)C(O)(c1ccccc1)c1ccccc1)c1ccc(F)cc1` reads inactive: 14%. On to `CN(C(=O)Cc1ccccc1)[C@@H]1CC[C@]2(CCCO2)C[C@H]1N1CCCC1`, for which the activity change was inactive: -11.5%. Turning to `CCOP1(=S)c2c(C)nn(CCC#N)c2N=C(c2ccc(F)cc2)N1C` (stereo unspecified), the activity change was inactive: 18.4%.

As for `Cc1nn(-c2ccccc2)c2c1P(=O)(N1CCOCC1)N(C)C(c1ccccc1)=N2` (stereo unspecified), the activity change was inactive: -1.91%.

Consider `CC1CCC(C(C)C)C(OP(=O)(Nc2ccccn2)c2ccccc2)C1` (stereo unspecified), for which the activity change is inactive: -21.1%. Then `Cc1ccc(C(=O)OC2CN3CCC2CC3)cc1` (stereo unspecified), with inactive: 4.92%. The result for `O=C(/C=C/c1ccccc1)OC1CN2CCC1CC2` (stereo unspecified) reads inactive: 9.07%; that for `CCCC1OP(=O)(Nc2ccccc2)OCC1CC` (stereo unspecified), inactive: -6%; that for `CN(C)C1(CNC(=O)c2ccc(S(C)(=O)=O)cc2)CCCCC1`, inactive: 12.5%. Take `O=P1(Nc2ncccn2)COc2ccccc2OC1`: the activity change was inactive: 3.98%. Then `O=P1(Nc2ccc(Br)cn2)COc2ccccc2OC1`, with inactive: 6.3%; and `NS(=O)(=O)c1cccc(NC(=O)COC(=O)C(O)(c2ccccc2)c2ccccc2)c1`, with inactive: -17.8%; and `Cc1ccc(OCC(=O)OC2CN3CCC2CC3)cc1` (stereo unspecified), with inactive: 25.1%. The result for `O=[As](O)(c1cccs1)c1cccs1` reads inactive: -1.07%; that for `Nc1cccc([As](=O)(O)c2ccccc2)c1`, inactive: -4.92%. Consider `CN(CCCl)Cc1cc(Cl)c(NC2=NCCN2)c(Cl)c1`, for which the activity change was inactive: 36.9%. Regarding `CCOP(=O)(Nc1ccc(C)cn1)OCC`, the activity change is inactive: 8.19%. As for `O=P1(Nc2ccccn2)COc2ccccc2OC1`, the activity change was inactive: -0.505%. The result for `CCC1=CC2Cc3nc4ccc(Cl)cc4c(N)c3C(C1)C2` (stereo unspecified) reads inactive: -5.57%. The result for `CCOP(=O)(NC(=NC(C)c1ccccc1)NC(C)c1ccccc1)OCC` (stereo unspecified) reads inactive: -29.8%. `O=P1(N(CCCl)CCCl)NCCC(C(F)(F)F)O1` (stereo unspecified): the activity change was inactive: -2.07%.

Take `Clc1n[nH]nc1-c1nn[nH][15n]1`: the activity change was inactive: 2.23%. The result for `CC(C)(C)C(=O)NC(Sc1ncccn1)C(Cl)(Cl)Cl` (stereo unspecified) reads inactive: 9.02%; that for `COc1ccccc1CNC(=O)COC(=O)C(O)(c1ccccc1)c1ccccc1`, inactive: 2.94%. Then `CC1(CBr)Cn2c(nc3ccccc3c2=O)S1` (stereo unspecified), with inactive: 2.97%; and `CC(C)/C=N\N=C(\N)N[N+](=O)[O-]`, with inactive: -4.57%; and `CN(C(=O)Cc1ccc(Cl)c(Cl)c1)[C@@H]1CCCC[C@H]1N1CCCC1`, with inactive: 69.3%. With `CC(C)C(=O)NC(Sc1ccccc1)C(Cl)(Cl)Cl` (stereo unspecified), the activity change is inactive: 1.43%. The result for `O=P(Nc1nccs1)(c1ccccc1)c1ccccc1` reads inactive: 2.44%; that for `c1nnnn1CCn1cnnn1`, inactive: 28.9%. Then `COc1ccc(N)c([N+](=O)[O-])c1[N+](=O)[O-]`, with inactive: 2.83%. Then `O=P(Nc1ccccn1)(c1ccc(Br)cc1)c1ccc(Br)cc1`, with “inactive”; and `CN(C)C1(CNC(=O)c2ccc(Cl)c(S(N)(=O)=O)c2)CCCCC1`, with inactive: -1.21%; and `O=P(Nc1nc2ccccc2s1)(c1ccccc1)c1ccccc1`, with inactive: -7.73%. For the compound `C[C@H]1OP(=O)(Oc2ccccc2)[C@H](O)[C@H](O)[C@H]1N=[N+]=[N-]` (stereo partly specified), the activity change is inactive: -3.7%. Turning to `O=[N+]([O-])c1ccc(O)c(/C=N/Nc2ccc([N+](=O)[O-])cc2[N+](=O)[O-])c1`, the activity change was inactive: -2.69%. The result for `CC(=O)NC(SC(=S)N(C)C)C(Cl)(Cl)Cl` (stereo unspecified) reads inactive: 4.94%; that for `O=[N+]([O-])c1ncn(CCn2cnc([N+](=O)[O-])n2)n1`, inactive: 0.543%. Then `O=[As](O)(c1ccccc1)c1ccc(O)cc1`, with inactive: 17.7%. With `Nc1ccc([As](=O)(O)c2ccc([N+](=O)[O-])cc2)cc1`, the activity change is inactive: 7.54%.

`C(Cc1nn[nH]n1)Cc1nn[nH]n1`: the activity change was inactive: -5.39%. Turning to `O=C(OC1CN2CCC1CC2)c1cccc(Cl)c1` (stereo unspecified), the activity change was inactive: 24%. The result for `CCNC(=S)/N=C(\N)N[N+](=O)[O-]` reads inactive: 13.3%; that for `O=C(NC1CCS(=O)(=O)C1)NP(=S)(Oc1ccccc1)Oc1ccccc1` (stereo unspecified), inactive: 4.09%. The result for `c1ccc(-c2nn[nH]n2)c(-c2nn[nH]n2)c1` reads inactive: -1.65%.
